According to patent US20070134286A1, “Methods for reducing intimal hyperplasia, smooth muscle cell proliferation and restenosis in mammals” (priority 2004, published 2007):
Read-outs that look alike come from different tables or passages of the source.

Tested on: human coronary artery smooth muscle cells
Experiment: 3H-thymidine incorporation (DNA synthesis / cell proliferation)
Type: cell-based
Protocol: Thvmidine incorporation: Cells were plated at 1×10^6 cells/ml, 200 μl/well into 96-well plates (Costar 3595—Cole-Parmer Instrument Company, Vernon Hills, Ill.). One day after plating, the cells were treated with test agents for 24 hours and then labeled with 0.3 μCi/well of ^3H-thymidine for another 48 hours. Each well was washed with 0.3 ml/well of PBS, incubated with 0.2 ml/well of ice-cold 10% trichloroacetic acid (hereinafter “TCA”) for 30 minutes at 4° C., and then followed by another wash of 0.2 ml/well of TCA. Samples were dissolved in MICROSCINT™ 20 before counting. Data shown are mean ± the standard deviation (n=4).
Thymidine incorporation: Cells were plated at 1×10^6 cells/ml, 200 μl/well into 96-well plates (Costar). One day after plating, the cells were treated with test agents for 24 hr and then labeled with 0.3 μCi/well of ^3H-thymidine for another 48 hr. Each well was washed with 0.3 ml/well of PBS, incubated with 0.2 ml/well of ice-cold 10% trichloroacetic acid (TCA) for 30 min at 4° C., and then followed by another wash of 0.2 ml/well of TCA. Samples were dissolved in MICROSCINT™ 20 (Packard) before counting.

With C=C1/C(=C\C=C2/CCC[C@]3(C)[C@@H]([C@H](C)CCCC(C)(C)O)CC[C@@H]23)C[C@@H](O)C[C@@H]1O [calcitriol, 1-alpha-25-dihydroxyvitamin D3] the EC50 (Example 1, CASMC, FIG. 4, read-out: EC50 inhibiting DNA synthesis ([3H]-thymidine incorporation)) was 0.111 ± 0.02 nM, the EC50 (Example 2, FIG. 8, read-out: EC50 inhibition of 3H-thymidine incorporation) was 0.11 nM and the inhibition at 0.01 µM (Example 2, at 10 nM, compared to cells in growth medium) was 46%.
